Screening results (PubChem BioAssay)
A selection: hits, their analogues and other compounds. The true share with any hit is near 2.1%.
PGC1a acetyl inh: inhibitors of PGC1a acetylation signal, primary screen, cell-based, U2OS, AlphaScreen, inhibitor mode. AID 651687, 2012. AlphaScreen anti-acetyl-lysine; with virally co-expressed GCN5 acetyltransferase. 350,000 tested, 0.17% active. inhibition, % at 15.6 µM;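 active = every replicate shows inhibition of at least 40%; inconclusive = mean inhibition at least 40% but some replicate below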;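 also: 0% = neutral control wells and 100% = positive control wells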
UUG fidelity: alters start codon recognition fidelity in yeast. S. cerevisiae UUG-firefly luciferase reporter, luminescence/redox ratio. 350,000 tested, 0.13% active. activity score, % at 18.7 µM. AID 602363;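 active means replicate mean at a twofold rise or more, about +100% in these data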;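 further: firefly luciferase made from a UUG start codon reports start codon fidelity; reporter light over untreated wells divided by growth signal over untreated wells; some hits fall short of that in this replicate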
MITF TRPM1 inh: inhibitors of MITF-dependent TRPM1 promoter reporter, primary screen, cell-based, SK-MEL-5, single point, luciferase | inhibition, % at 12.5 µM | 330,000 tested, 0.83% active | AID 488899, 2010 | SK-MEL-5 TRPM1 promoter luciferase, 24 h;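 active = mean inhibition across replicates of 60% or more, whatever share of single replicates reaches that level; inconclusive = some that reach 60%, reason not given; inactive = mean inhibition across replicates below 60%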
miR122 inh: miR-122 Renilla sensor signal increase in Huh7, primary screen, miR-122 inhibitor project, cell-based, single point, plate reader. Huh7 miR-122 Renilla luciferase sensor, 48 h; neutral wells = 0, positive control = 100. activation (reporter increase), % at 12.5 µM. 340,000 tested, 0.3% active;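 active = mean replicate activation score at least 90 and every replicate individually at or above 90; inconclusive = only one of the two criteria met; inactive = neither criterion met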;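 also: higher luciferase means less miR-122 activity so hits act as miR-122 inhibitors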
Wnt bcat act: Wnt/beta-catenin pathway activators, primary screen, cell-based, plate reader, single point; Wnt/beta-catenin reporter cell assay, activator; activation, % at 9.35 µM; 300,000 tested, 1.2% active; AID 743398, 2014; in the data active = activation above about 30%, passing the limit was not always enough; inconclusive = no clear call, values can overlap the other calls;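 also: 0% = neutral control wells and 100% = positive control wells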
MITF TRPM1 HTS: activators of MITF-driven TRPM1 promoter reporter, primary screen, cell-based, SK-MEL-5, luciferase, single point; SK-MEL-5 TRPM1-promoter luciferase, 24 h; % of positive control, neutral wells = 0; activation, % at 12.5 µM; 300,000 tested, 0.75% active; AID 588334, 2011;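 active = mean activation of at least 80% with every replicate also reaching 80%; inconclusive = mean reaches 80% but some replicate falls short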;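 also: 0% = neutral control wells and 100% = parthenolide positive control wells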
The depositor's hits bear a star; ? = inconclusive; . = no result; [ ] = another dose, or the depositor's remark.

1) C[C@@H]1CCCCO[C@H](CN(C)C(=O)Nc2ccc3c(c2)OCO3)[C@H](C)CN([C@@H](C)CO)C(=O)c2cc(NS(=O)(=O)c3cn(C)cn3)ccc2O1
2) C[C@H](CO)N1C[C@H](C)[C@H](CN(C)Cc2ccccc2)Oc2cc(C#C[C@@H](C)O)ccc2S1(=O)=O
3) Cc1noc(C)c1NC(=O)Nc1ccc2c(c1)C(=O)N([C@@H](C)CO)C[C@H](C)[C@H](CN(C)S(=O)(=O)c1ccccc1)O2
4) C[C@@H]1CCCCO[C@@H](CN(C)Cc2ccccc2)[C@@H](C)CN([C@@H](C)CO)C(=O)c2cc(NS(=O)(=O)c3ccc(Cl)cc3)ccc2O1
5) CC(=O)N(C)C[C@@H]1Oc2cc(-c3cncnc3)ccc2S(=O)(=O)N([C@H](C)CO)C[C@H]1C
Screen / compound no.	1	2	3	4	5
PGC1a acetyl inh	-11	-14	-8	0	8
UUG fidelity	-5	2	8	19	-11
MITF TRPM1 inh	.	.	.	.	.
miR122 inh	-4[16.7 µM]	8[16.7 µM]	2[16.7 µM]	-7[16.7 µM]	-5[16.7 µM]
Wnt bcat act	.	.	.	.	.
MITF TRPM1 HTS	.	.	.	.	.

6) CC(C)NC(=O)N(C)C[C@@H]1Oc2cc(C#C[C@@H](C)O)ccc2S(=O)(=O)N([C@H](C)CO)C[C@@H]1C
7) CCN(CC)CCn1nc2c3c(cccc3c1=O)-c1ccccc1-2
8) Cc1ccc(OCCSc2ncnc3nc[nH]c23)cc1
9) O=C(Nc1ccccc1)C1=C(c2ccccc2)S(=O)(=O)CCS1(=O)=O
10) O=C(O)c1ccccc1C(=O)Nc1ccccc1
Screen / compound no.	6	7	8	9	10
PGC1a acetyl inh	9	.	-1	-104	-3
UUG fidelity	.	.	.	.	-12
MITF TRPM1 inh	.	70*	-85	81*	3
miR122 inh	-9[16.7 µM]	.	-1	.	-14
Wnt bcat act	.	1	.	-2	-2
MITF TRPM1 HTS	.	-69	90*	-80	.

11) CNC[C@@H]1Oc2ccc(NS(=O)(=O)c3cn(C)cn3)cc2CC(=O)N([C@H](C)CO)C[C@@H]1C
12) c1ccc2c(c1)CCc1c(-c3ccncc3)n[nH]c1-2
13) CCCc1cc(C(=O)Nc2nccs2)cs1
14) Nc1ccc(-c2nc3c(Cl)cc(N)cc3[nH]2)cc1
15) Nc1ccc2nc(-c3ccc(N)c(Cl)c3)[nH]c2c1
Screen / compound no.	11	12	13	14	15
PGC1a acetyl inh	1	0	-11	-37	-4
UUG fidelity	6	3	-47	-19	.
MITF TRPM1 inh	.	15	-97	76*	-29
miR122 inh	-9[16.7 µM]	-7	-4	0	1
Wnt bcat act	.	44*	.	.	.
MITF TRPM1 HTS	.	-14	95*	-75	31

16) CN1C(=O)c2cc(NC(=O)c3cccc(F)c3)ccc2OC[C@H]2O[C@H](CC(=O)O)CC[C@H]21
17) O=C(CSc1nnc(-c2ccncc2)o1)Nc1cc(F)ccc1F
18) O=C(CSc1nnc(-c2ccccc2)o1)Nc1ccccc1F
19) COc1ccc(-c2nnc(SCc3ccccc3F)o2)cc1OC
20) Cc1ccc(-c2nnc(SCC(=O)Nc3ccccc3F)o2)cc1
Screen / compound no.	16	17	18	19	20
PGC1a acetyl inh	5	-13	.	-4	.
UUG fidelity	14	3	-24	-14	-24
MITF TRPM1 inh	.	-59	.	-68	76*
miR122 inh	-43[16.7 µM]	1	-11	-2	.
Wnt bcat act	.	33*	-5	.	-11
MITF TRPM1 HTS	.	59	.	71	-76

Some of the entries so far, as labelled records.
16) CN1C(=O)c2cc(NC(=O)c3cccc(F)c3)ccc2OC[C@H]2O[C@H](CC(=O)O)CC[C@H]21
  PGC1a acetyl inh: 5 | UUG fidelity: 14 | MITF TRPM1 inh: . | miR122 inh: -43[16.7 µM] | Wnt bcat act: . | MITF TRPM1 HTS: .
17) O=C(CSc1nnc(-c2ccncc2)o1)Nc1cc(F)ccc1F
  PGC1a acetyl inh: -13 | UUG fidelity: 3 | MITF TRPM1 inh: -59 | miR122 inh: 1 | Wnt bcat act: 33* | MITF TRPM1 HTS: 59
18) O=C(CSc1nnc(-c2ccccc2)o1)Nc1ccccc1F
  PGC1a acetyl inh: . | UUG fidelity: -24 | MITF TRPM1 inh: . | miR122 inh: -11 | Wnt bcat act: -5 | MITF TRPM1 HTS: .
19) COc1ccc(-c2nnc(SCc3ccccc3F)o2)cc1OC
  PGC1a acetyl inh: -4 | UUG fidelity: -14 | MITF TRPM1 inh: -68 | miR122 inh: -2 | Wnt bcat act: . | MITF TRPM1 HTS: 71

Other entries:
21) Cc1ccc(-c2nnc(SCc3ccccc3F)o2)cc1
22) O=S(=O)(Cc1ccccc1)N1CCCCN2[C@H](CO)[C@H](c3ccc(-c4ccc(F)cc4)cc3)[C@H]2C1
23) CN(C)C(=O)C[C@H]1C=C[C@H](NC(=O)Nc2cccc(F)c2)[C@@H](CO)O1
24) Cc1nn2cc(-c3ccc(-c4ccccc4)cc3)nc2s1
25) Cc1nn2cc(-c3ccc(Cl)cc3)nc2s1
Screen / compound no.	21	22	23	24	25
PGC1a acetyl inh	8	8	36	-14	.
UUG fidelity	.	8	-2	-33	-25
MITF TRPM1 inh	-94	.	.	-39	0
miR122 inh	2	-2[16.7 µM]	.	2	-2
Wnt bcat act	29	.	.	?	71*
MITF TRPM1 HTS	99*	.	.	32	.

26) O=C(N/N=C/c1ccc([N+](=O)[O-])s1)c1cccc(Br)c1
27) Cc1ccc(C(=O)N/N=C/c2ccc([N+](=O)[O-])s2)cc1
28) O=C(N/N=C/c1ccc([N+](=O)[O-])s1)c1ccncc1
29) Cc1cc(C(=O)N/N=C/c2ccc([N+](=O)[O-])s2)n[nH]1
30) Cc1ccc(C(=O)N/N=C\c2ccc([N+](=O)[O-])s2)cn1
Screen / compound no.	26	27	28	29	30
PGC1a acetyl inh	.	-11	-21	.	.
UUG fidelity	-6	.	21	-8	.
MITF TRPM1 inh	82*	105*	?	70*	109*
miR122 inh	2	12	5	-3	.
Wnt bcat act	.	.	0	14	-1
MITF TRPM1 HTS	-82	-104	-56	.	-109

31) CCCC#Cc1cnc2c(c1)C(=O)N([C@@H](C)CO)C[C@H](C)[C@H](CN(C)Cc1ccc3c(c1)OCO3)O2
32) CC(=O)N1[C@H](CNC(=O)CN2CCOCC2)[C@H](c2ccccc2)[C@@H]1CO
33) O=[N+]([O-])c1ccc(O)c(C=Nc2ccc3c(c2)OCO3)c1
34) OC[C@@H]1[C@H](c2ccccc2)C2(CN(Cc3nccs3)C2)N1CC1CCOCC1
35) COc1ccccc1C(=O)Nc1ccc2c(c1)C(=O)N(C)[C@@H]1CC[C@H](CC(=O)NCc3ccc(Cl)c(Cl)c3)O[C@@H]1CO2
Screen / compound no.	31	32	33	34	35
PGC1a acetyl inh	-2	-2	9	3	14
UUG fidelity	-4	11	-20	.	-15
MITF TRPM1 inh	.	.	-6	.	.
miR122 inh	9[16.7 µM]	0[16.7 µM]	-1	.	26[16.7 µM]
Wnt bcat act	.	.	34*	.	.
MITF TRPM1 HTS	.	.	7	.	.

36) O=C(CSc1nc2ccc([N+](=O)[O-])cc2[nH]1)NC1CCCCCC1
37) C=CCS/C(N)=N\N=C\c1c(O)ccc2ccccc12
38) CS(=O)(=O)N1CC(=O)N2[C@H](CO)[C@H](c3ccc(C#Cc4ccccc4)cc3)[C@@H]2C1
39) O=C(NC1CCCCC1)C(c1ccc2ncccc2c1)N(Cc1ccc(F)cc1)C(=O)c1ccc2c(c1)OCCO2 (stereo unspecified)
40) O=C(NC1CCCCC1)C(c1ccc2ncccc2c1)N(Cc1ccc2c(c1)OCO2)C(=O)c1ccc2c(c1)OCCO2 (stereo unspecified)
Screen / compound no.	36	37	38	39	40
PGC1a acetyl inh	.	-3	-4	-9	96*
UUG fidelity	-15	-25	.	-11	-7
MITF TRPM1 inh	7	-60	.	23	0
miR122 inh	328*	-8	.	-1	0
Wnt bcat act	.	99*	.	-5	6
MITF TRPM1 HTS	-5	58	.	-20	4

41) CS(=O)(=O)N1CC2(C1)[C@@H](c1ccccc1)[C@@H](CO)N2CCC(F)(F)F
42) O=C(NCCOc1ccccc1)c1ccccc1Cl
43) COc1ccc(OCCNC(=O)c2ccccc2Cl)cc1
44) COc1ccc(OC)c(NC(=O)NCCc2cccc(Cl)c2)c1
45) COc1ccc(NS(=O)(=O)c2cc(C)ccc2C)cc1
46) CCN(CC)S(=O)(=O)c1ccc(NS(=O)(=O)c2ccc(C)c(C)c2)cc1
47) CCN(CC)S(=O)(=O)c1cc(NS(=O)(=O)c2ccccc2)ccc1C
48) CCN(CC)c1ccc(N)cc1S(=O)(=O)Nc1ccc(OC)cc1
Screen / compound no.	41	42	43	44	45	46	47	48
PGC1a acetyl inh	2	1	-1	-13	-11	-7	.	-8
UUG fidelity	.	-38	-4	.	-5	-2	.	-21
MITF TRPM1 inh	.	-74	14	-1	7	-5	9	1
miR122 inh	.	.	0	.	539*	183*	.	107*
Wnt bcat act	.	35*	0	60*	.	0	.	1
MITF TRPM1 HTS	.	71	-7	-4	-6	.	-11	-2
